{
  "source": "paper PMC11220790",
  "about": "(Molecular Pharmaceutics, 2024)",
  "key": {"[1]": {"test": "Intrinsic dissolution, rotating disk apparatus", "assay_type": "physicochemical", "method": "Intrinsic dissolution tests were carried out in triplicate using a rotating disk dissolution apparatus. […] The attachments containing the disks were immersed into 500 mL of phosphate buffer, pH 6.8, medium preheated at 37.0 ± 0.5 °C with the metallic rod rotating at 100 rpm."}, "[2]": {"test": "Photostability in aqueous media (DTIC degradation / 2-AZA formation kinetics)", "assay_type": "physicochemical", "settings": "5 mM solution, phosphate buffer pH 6.8, UV irradiation 5 h", "method": "The mobile phase consisted of a mixture of 0.1% (v/v) aqueous formic acid solution (A) and acetonitrile (B), in a gradient elution mode (0.0–2.5 min: 0% B; 2.5–4.0 min: 0–6% B; 4.0–5.0 min: 6–0% B; and 5.0–7.0 min: 0% B), delivered at a flow rate of 0.8 mL min^–1. […] The method validation followed the ICH Q2 (R2) guideline.[31] The parameters selectivity, linearity, precision, accuracy, and limits of quantitation and detection were evaluated.\nA triplicate of freshly prepared solutions at a concentration of 5 mM has been placed into clear glass vials and arranged at 30 cm from a black UV lamp (300 mm, 15 W) to be photoirradiated for 5 h."}, "[3]": {"test": "Thermal analysis (DSC and TG)", "assay_type": "physicochemical", "method": "Thermogravimetric (TG) experiments were performed on a Shimadzu DTG-60 thermobalance, placing approximately 2.0 ± 0.2 mg of each sample in alumina pans and then heating at 10 °C min^–1 under a nitrogen flow (50 mL min^–1) from 25 to 600 °C. Differential scanning calorimetry (DSC) curves were obtained using a Shimadzu DSC-60 instrument. The samples (1.0 ± 0.2 mg) were placed in aluminum pans and heated at a constant rate of 10 °C min^–1 under a nitrogen flow (50 mL min^–1). According to TG data, the DSC measurements have been conducted until the degradation temperature of each compound. Shimadzu TA-60 software was employed in the data analysis."}, "[4]": {"test": "Solid-state photodegradation test (black UV lamp chamber)", "settings": "after 15 days in photostability chamber"}, "[5]": {"test": "Solid-state stability under accelerated degradation conditions (40 °C, 75% RH)"}},
  "note": "Read-outs that look alike come from different tables or passages of the source.",
  "data": [
    {"substance": "Dacarbazine-Succinic Acid Cocrystal [DTIC-H2SUC]", "values": [
      {"measurement": "IDR compared with DTIC (in words)", "setting": "[1]; phosphate buffer pH 6.8", "result": "equivalent to those of DTIC"},
      {"measurement": "IDR (intrinsic dissolution rate) pH 6.8", "setting": "[1]; phosphate buffer pH 6.8, 37.0 ± 0.5 °C, 100 rpm", "result": "0.43 ± 0.03", "unit": "mg cm^–2 min^–1"},
      {"measurement": "kg, photogeneration rate constant for 2-AZA", "setting": "[2]", "result": "0.378 ± 0.05", "unit": "mM h^–1"},
      {"measurement": "Tonset of DSC exothermic degradation peak", "setting": "[3]", "result": 165.2, "unit": "°C"},
      {"measurement": "decomposition temperature (DSC exothermic degradation peak)", "setting": "[3]", "result": 169.7, "unit": "°C"},
      {"measurement": "TG: thermally stable up to / mass loss begins at", "setting": "[3]; 10 °C min^–1, nitrogen flow", "result": "~156", "unit": "°C"},
      {"measurement": "Tonset of TG mass loss", "setting": "[3]; 10 °C min^–1, nitrogen flow", "result": 152.6, "unit": "°C"},
      {"measurement": "solubility pH 1.2", "setting": "HCl solution pH 1.2, 37.0 ± 0.5 °C, 24 h", "result": "28.8 ± 0.2", "unit": "mg mL^–1"},
      {"measurement": "solubility pH 4.5", "setting": "acetate buffer pH 4.5, 37.0 ± 0.5 °C, 24 h", "result": "10.2 ± 0.7", "unit": "mg mL^–1"},
      {"measurement": "pH measured after solubility study", "setting": "dissolution medium pH 1.2", "result": 1.2},
      {"measurement": "pH measured after solubility study", "setting": "dissolution medium pH 4.5", "result": 4.4},
      {"measurement": "pH measured after solubility study", "setting": "dissolution medium pH 6.8", "result": 6.8},
      {"measurement": "solubility pH 6.8", "setting": "phosphate buffer pH 6.8, 37.0 ± 0.5 °C, 24 h", "result": "6.9 ± 0.3", "unit": "mg mL^–1"},
      {"measurement": "stability, % 2-AZA found", "setting": "[4]", "result": "0.8 ± 0.1", "unit": "%"},
      {"measurement": "stability, % DTIC found", "setting": "[4]", "result": "98.7 ± 0.3", "unit": "%"},
      {"measurement": "stability, % DTIC found", "setting": "[5]; freshly prepared (initial) solid sample", "result": "99.7 ± 0.2", "unit": "%"},
      {"measurement": "stability, % DTIC found", "setting": "[5]; solid, after 90 days at 40 °C and 75% RH", "result": "99.3 ± 0.3", "unit": "%"}
    ]}
  ]
}
